Columns and labels:
female 129S6/SvEv mice [1] = assay: Open field (OF); assay type: in vivo, mouse; settings: (R,S)-ketamine 10 mg/kg, (2R,6R)-HNK 0.025 mg/kg, prophylactic
female 129S6/SvEv mice [2] = assay: Elevated plus maze (EPM); assay type: in vivo, mouse; settings: (R,S)-ketamine 10 mg/kg, (2R,6R)-HNK 0.025 mg/kg; for Time in the closed arms of the EPM vs saline / Time in the open arms of the EPM vs saline: 1 week before LH training, female mice
Protocol: The EPM was administered as previously described (58), with the exception that videos were scored using ANY-maze behavioral tracking software (Stoelting Co., Wood Dale, Ill.).
We have previously shown that prophylactic (R,S)-ketamine attenuates helpless behavior in male mice (18). To validate these findings in females, female mice were administered saline, (R,S)-ketamine, or (2R,6R)-HNK one week prior to LH training (FIG. 4A). Two weeks later, mice were tested for escape latency and for depressive- and anxiety-like behaviors in the FST and elevated plus maze (EPM). CFC was again administered following these behavioral assays.

female 129S6/SvEv mice [3] = assay: Learned helplessness (LH), session length and escape latency; assay type: in vivo, mouse; settings: (R,S)-ketamine 10 mg/kg, (2R,6R)-HNK 0.025 mg/kg; for Escape latency in the LH assay vs saline / Session length in the LH assay vs saline: 1 week before LH training, female mice; for Depressive-Like Behavior: Stress model Learned Helplessness, time interval 1 week, sex F
female 129S6/SvEv mice [4] = assay: Forced swim test after 10-day chronic immobilization stress (CIS); assay type: in vivo, mouse; settings: (R,S)-ketamine 10 mg/kg, (2R,6R)-HNK 0.025 mg/kg; for Immobility in the FST (Day 2) vs saline: 1 week before 10-day CIS, female mice; for Depressive-Like Behavior: Stress model Chronic Immobilization Stress, time interval 1 week, sex F
female 129S6/SvEv mice [5] = assay: Forced swim test (FST), immobility time, after stress; settings: for Immobility on FST Day 2 vs saline / Depressive-Like Behavior: (R,S)-ketamine 10 mg/kg, (2R,6R)-HNK 0.025 mg/kg; for Depressive-Like Behavior: Stress model Contextual Fear Conditioning, sex F
female 129S6/SvEv mice [6] = assay: Contextual fear conditioning (CFC), 3-shock, freezing in training and context re-exposure; settings: (R,S)-ketamine 10 mg/kg, (2R,6R)-HNK 0.025 mg/kg; for Fear behavior, freezing in CFC training and re-exposure: 1 week before CIS, CFC after CIS and FST; for Freezing during CFC Training vs saline: sham and OVX surgery groups
[7] = injection one hour prior to FST Day 1, female mice

SMILES | Distance travelled in the OF vs saline (female 129S6/SvEv mice [1]) | Time in the center of the OF vs saline (female 129S6/SvEv mice [1]) | Time in the closed arms of the EPM vs saline (female 129S6/SvEv mice [2]) | Escape latency in the LH assay vs saline (female 129S6/SvEv mice [3]) | Session length in the LH assay vs saline (female 129S6/SvEv mice [3]) | Depressive-Like Behavior (female 129S6/SvEv mice [3]) | Depressive-Like Behavior (female 129S6/SvEv mice [4]) | Immobility on FST Day 2 vs saline (female 129S6/SvEv mice [5]; [7]) | Depressive-Like Behavior (female 129S6/SvEv mice [5]; time interval 1 week) | Fear behavior, freezing in CFC training and re-exposure (female 129S6/SvEv mice [6]) | also measured
CNC1(c2ccccc2Cl)CCCCC1=O (racemic) [(R,S)-ketamine, (RS)-2-(2-chlorophenyl)-2-(methylamino)cyclohexanone] | did not alter distance travelled | did not alter distance travelled or time in the center of the OF | less time in the closed arms | did not alter session length or escape latency | did not alter session length | ↓ | ↓ | immobility was comparable between the groups for the remainder of the session | ↓ | do not affect fear behavior | Time in the closed arms of the EPM vs saline (female 129S6/SvEv mice [2]; listed as (R, S)-ketamine): spent significantly less time in the closed arms; Time in the open arms of the EPM vs saline (female 129S6/SvEv mice [2]; listed as (R, S)-ketamine): spent more time in the open arms; Anxiety-Like Behavior (female 129S6/SvEv mice [2]; Stress model Learned Helplessness, time interval 1 week, sex F): ↓; Immobility in the FST (Day 2) vs saline (female 129S6/SvEv mice [4]): significantly reduced immobility; Immobility in the FST (Day 2) vs saline (female 129S6/SvEv mice [4]; listed as (R, S)-ketamine): significantly lowered immobility; Immobility on FST Day 2 vs saline (female 129S6/SvEv mice [5]; sham surgery, 1 week before CFC): reduced immobility compared to saline controls; Immobility on FST Day 2 vs saline (female 129S6/SvEv mice [5]; sham surgery, 1 week before CFC, listed as (R, S)-ketamine): decreased immobility time; Freezing during CFC Training vs saline (female 129S6/SvEv mice [6]): comparable freezing levels; Freezing during CFC Training vs saline (female 129S6/SvEv mice [6]; listed as (R, S)-ketamine): neither (R, S)-ketamine nor (2R,6R)-HNK significantly altered freezing
N[C@@]1(c2ccccc2Cl)CCC[C@@H](O)C1=O [(2R,6R)-HNK, (2R,6R)-hydroxynorketamine] | did not alter distance travelled | did not alter distance travelled or time in the center of the OF | but not (2R,6R)-HNK | did not alter session length or escape latency | did not alter session length | ↓ | ↓ | did not affect immobility throughout the FST | ↓ | do not affect fear behavior | Time in the open arms of the EPM vs saline (female 129S6/SvEv mice [2]): but not (2R,6R)-HNK; Depressive-Like Behavior (female 129S6/SvEv mice [5]; time interval 3 days): ↓
N[C@]1(c2ccccc2Cl)CCC[C@H](O)C1=O [(2S,6S)-HNK] |  |  |  |  |  |  |  |  |  |  | Prophylactic efficacy against stress-induced depressive-like behavior (female 129S6/SvEv mice [5]; single injection 1 week before stressor, female mice): but not its enantiomer (2S,6S)-HNK
